From ChEMBL document CHEMBL5537208, “Discovery of Nivasorexant (ACT-539313): The First Selective Orexin-1 Receptor Antagonist (SO1RA) Investigated in Clinical Trials” (J Med Chem, 2024)
pIC50: −log10 of the molar value.

By UniProt entry, the sequences of proteins in these tests, tags left out.
UniProt P56718, whole entry: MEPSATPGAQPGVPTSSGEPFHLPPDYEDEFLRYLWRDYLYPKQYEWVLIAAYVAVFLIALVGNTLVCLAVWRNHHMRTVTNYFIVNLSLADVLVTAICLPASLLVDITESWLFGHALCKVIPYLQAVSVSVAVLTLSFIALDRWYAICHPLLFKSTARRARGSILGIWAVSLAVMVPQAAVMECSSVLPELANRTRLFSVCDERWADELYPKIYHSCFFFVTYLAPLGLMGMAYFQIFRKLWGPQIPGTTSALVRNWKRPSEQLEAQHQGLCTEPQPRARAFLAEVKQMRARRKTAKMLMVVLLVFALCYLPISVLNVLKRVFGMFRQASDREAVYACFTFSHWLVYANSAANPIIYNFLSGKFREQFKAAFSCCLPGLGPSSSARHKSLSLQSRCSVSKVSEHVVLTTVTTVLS
UniProt O43614, whole entry: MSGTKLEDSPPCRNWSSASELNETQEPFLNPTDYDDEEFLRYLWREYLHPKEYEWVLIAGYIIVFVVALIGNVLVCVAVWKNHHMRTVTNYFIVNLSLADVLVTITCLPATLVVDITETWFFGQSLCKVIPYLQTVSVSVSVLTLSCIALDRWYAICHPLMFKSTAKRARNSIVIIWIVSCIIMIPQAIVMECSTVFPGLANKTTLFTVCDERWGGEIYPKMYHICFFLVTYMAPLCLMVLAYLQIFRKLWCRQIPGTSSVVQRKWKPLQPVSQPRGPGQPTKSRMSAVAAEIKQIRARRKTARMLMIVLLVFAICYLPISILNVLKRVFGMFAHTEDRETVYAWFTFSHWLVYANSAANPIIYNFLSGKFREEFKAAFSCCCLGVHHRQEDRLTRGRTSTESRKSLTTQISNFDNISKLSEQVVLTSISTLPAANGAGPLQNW

Key:
[1] = target: Orexin/Hypocretin receptor type 1 (Rattus norvegicus) (UniProt P56718); settings: Wistar, dose 1.0 mg/kg, route po, time 1.0 hrs
[2] = target: Orexin/Hypocretin receptor type 1 (Rattus norvegicus) (UniProt P56718); settings: Wistar, dose 30.0 mg/kg, route po, time 1.0 hrs
[3] = target: Orexin/Hypocretin receptor type 1 (Rattus norvegicus) (UniProt P56718); settings: Wistar, dose 100.0 mg/kg, route po, time 1.0 hrs
Rattus norvegicus = organism: Rattus norvegicus; settings: Sprague-Dawley, dose 30-100 mg/kg, route po, time 1.0 hrs
Orexin receptor type 2 = Orexin receptor type 2 (Homo sapiens, UniProt O43614)

Occ [1]	Occ [2]	Occ [3]	pIC50 (Orexin receptor type 2)	Compound	inhibition (Rattus norvegicus)
> 99%	93%	> 99%	–	Cc1ccc(C(=O)N2CCOC[C@H]2Cc2cc(-n3nccn3)ccc2F)c(-n2nccn2)c1	–
> 99%	> 99%	> 99%	–	Cc1ccc(C(=O)N2CCOC[C@H]2Cc2cccc(-n3nccn3)c2)c(-n2nccn2)c1 [NIVASOREXANT]	Dose-Dependent Effect
–	–	–	6.41	Cc1ccc(C(=O)N2[C@H](Cc3cccc(-n4nccn4)c3)COC[C@H]2C)c(-n2nccn2)c1	–
> 97%	–	–	–	Cc1cccc(C(=O)N2CCOC[C@H]2Cc2cccc(-n3nccn3)c2)c1-n1nccn1	–
